Data on one compound can be found in patent US9040707B2, “Bicyclic thiazoles as allosteric modulators of mGluR5 receptors” (Janssen Pharmaceutica NV, priority 2009, dated 2015).

By UniProt entry, the sequences of proteins in these tests, tags left out. Residues count along the entry.
UniProt P41594, 21-1180 isoform P41594-2 limits assumed: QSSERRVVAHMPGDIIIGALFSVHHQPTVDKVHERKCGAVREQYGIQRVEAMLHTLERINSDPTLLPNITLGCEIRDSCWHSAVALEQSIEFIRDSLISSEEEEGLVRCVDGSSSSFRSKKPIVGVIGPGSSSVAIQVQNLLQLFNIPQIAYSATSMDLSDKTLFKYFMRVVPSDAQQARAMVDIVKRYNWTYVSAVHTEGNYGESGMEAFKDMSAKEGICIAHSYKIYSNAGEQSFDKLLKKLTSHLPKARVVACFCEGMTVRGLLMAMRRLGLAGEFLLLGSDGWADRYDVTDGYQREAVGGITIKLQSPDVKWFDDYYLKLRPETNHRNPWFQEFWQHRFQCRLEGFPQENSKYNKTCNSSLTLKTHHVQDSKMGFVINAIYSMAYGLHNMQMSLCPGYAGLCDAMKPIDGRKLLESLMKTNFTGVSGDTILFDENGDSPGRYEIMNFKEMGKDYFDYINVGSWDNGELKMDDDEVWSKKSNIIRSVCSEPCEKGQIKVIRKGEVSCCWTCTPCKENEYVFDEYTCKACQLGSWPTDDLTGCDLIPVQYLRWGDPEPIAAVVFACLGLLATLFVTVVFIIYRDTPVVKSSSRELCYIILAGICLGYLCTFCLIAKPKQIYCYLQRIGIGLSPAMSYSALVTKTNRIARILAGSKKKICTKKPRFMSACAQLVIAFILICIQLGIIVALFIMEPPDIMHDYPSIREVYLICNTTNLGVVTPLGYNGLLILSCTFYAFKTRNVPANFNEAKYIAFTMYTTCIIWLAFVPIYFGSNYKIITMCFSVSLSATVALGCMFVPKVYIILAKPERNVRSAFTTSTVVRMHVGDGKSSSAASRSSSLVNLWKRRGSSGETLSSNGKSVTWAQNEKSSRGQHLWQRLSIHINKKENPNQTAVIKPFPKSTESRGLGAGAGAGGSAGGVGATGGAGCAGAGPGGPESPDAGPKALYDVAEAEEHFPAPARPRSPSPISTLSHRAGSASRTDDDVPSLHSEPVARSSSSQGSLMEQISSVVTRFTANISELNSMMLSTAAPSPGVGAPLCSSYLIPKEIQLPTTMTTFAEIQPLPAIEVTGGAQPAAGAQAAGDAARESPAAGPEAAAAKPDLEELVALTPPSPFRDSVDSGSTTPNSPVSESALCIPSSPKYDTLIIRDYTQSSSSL

In the assay the target is T1, human mGluR5a receptor (Homo sapiens, UniProt P41594).
T1 construct: host or cells: HEK293A (monoclones H10H and H12H)
The assay is described as follows: Functional Assay 2: Ca2+ mobilization, HEK cells with human mGluR5a receptor (H10H cell line). The assay is classed as cell-based. The conditions noted are these: HEK293. The method, then:
Human mGluR5a cDNA in pCMV6-XL6 mammalian expression plasmid was purchased from OriGene Technologies, Inc. (catalogue number SC326357) and subcloned into pcDNA3.1(−). […] Monoclones were named for the species (“H” for human) plus the location on the plate (e.g. “10H”).
The following day, the growth medium was removed and the cells were washed with assay buffer containing 1× Hank's balanced salt solution (Invitrogen, Carlsbad, Calif.), 20 mM HEPES, 2.5 mM probenecid, pH 7.4 and left with 20 μL of this reagent. Following this step, the cells were loaded with calcium indicator dye, fluo-4 AM, to a final concentration of 2 μM and incubated for 40-45 min at 37° C. The dye solution was removed and replaced with assay buffer. Cell plates were held for 10-15 min at room temperature and were then loaded into the Functional Drug Screening System 6000 (FDSS 6000, Hamamatsu, Japan).
After establishment of a fluorescence baseline for about 3 seconds, the compounds of the present invention were added to the cells, and the response in cells was measured. 2.3 minutes later an EC20 concentration of the mGluR5 receptor agonist glutamate was added to the cells, and the response of the cells was measured for about 1.7 minutes. […] Calcium fluorescence measures were recorded as fold over basal fluorescence; raw data was then normalized to the maximal response to glutamate. […]
(In general: A change in cytosolic calcium serves as a functional read-out for many receptors and channels.)

`CCN1CCc2nc(COc3ccccc3)sc2C1=O` [Compound 56, 5-ethyl-6,7-dihydro-2-(phenoxymethyl)-thiazolo[5,4-c]pyridin-4(5H)-one]: the Emax (usually the maximal effect, on the per cent scale that the assay sets) was 75%.
